The target in this experiment is Delta-type opioid receptor (Mus musculus) (UniProt P32300). Put plainly: Antagonist potency measured as Ke = [antagonist]/(IC50 ratio-1) against delta opioid receptor from mouse vas deferens (MVD) using DPDPE. The class given is functional. An outline of the steps:
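Vas deferens from male ICR mice (25-40 g) in 37 °C oxygenated magnesium-free Krebs, 0.5 g tension, field-stimulated 0.1 Hz, 2-ms pulses. Compound 1 µM for 30 min, washout 30 min, cumulative DPDPE curve repeated. Ke = [antagonist]/(IC50 ratio - 1); IC50 from 2-4 tissues, n ≥ 3, nonlinear least squares.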

Protein sequences, listed by entry. Tags and fused reporters are not part of them.
UniProt P32300, whole entry: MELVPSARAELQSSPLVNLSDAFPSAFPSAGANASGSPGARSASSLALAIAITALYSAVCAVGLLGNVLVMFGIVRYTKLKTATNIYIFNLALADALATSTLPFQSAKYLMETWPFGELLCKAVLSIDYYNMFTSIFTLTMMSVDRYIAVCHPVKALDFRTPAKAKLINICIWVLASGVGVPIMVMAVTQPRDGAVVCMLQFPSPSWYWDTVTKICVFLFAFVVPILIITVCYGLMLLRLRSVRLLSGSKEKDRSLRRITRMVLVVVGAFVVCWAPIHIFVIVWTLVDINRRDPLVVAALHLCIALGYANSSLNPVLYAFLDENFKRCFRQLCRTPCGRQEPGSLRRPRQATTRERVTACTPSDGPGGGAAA

For the compound `Oc1ccc2c3c1O[C@H]1c4ncc(-c5ccc(Cl)cc5)cc4C[C@@]4(O)[C@@H](C2)N(CC2CC2)CC[C@]314`, the Ke is 0.66 nM.
